Test results from patent publication US8242134B2, “Isoquinolinone derivatives as NK3 antagonists” (H. Lundbeck A/S, priority 2008, dated 2012).

Amino acid sequences for entries named in this document (tags omitted).
UniProt P29371, whole entry: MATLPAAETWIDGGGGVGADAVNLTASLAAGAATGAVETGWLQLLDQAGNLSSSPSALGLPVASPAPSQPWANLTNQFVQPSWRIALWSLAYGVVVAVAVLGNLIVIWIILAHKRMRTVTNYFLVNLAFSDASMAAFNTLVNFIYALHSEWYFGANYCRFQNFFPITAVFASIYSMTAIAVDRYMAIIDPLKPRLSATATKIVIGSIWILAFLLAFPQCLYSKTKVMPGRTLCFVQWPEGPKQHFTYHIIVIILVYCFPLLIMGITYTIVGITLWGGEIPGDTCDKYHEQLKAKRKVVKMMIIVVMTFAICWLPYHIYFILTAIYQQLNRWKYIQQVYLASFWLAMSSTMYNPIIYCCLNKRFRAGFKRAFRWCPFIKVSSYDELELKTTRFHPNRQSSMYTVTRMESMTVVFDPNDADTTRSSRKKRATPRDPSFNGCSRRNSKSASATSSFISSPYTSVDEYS

Target: T1, human NK3 receptor (Homo sapiens, UniProt P29371)
T1 construct: expressed in transfected cells
Test: NK3 receptor efficacy and potency assay (FLIPR calcium)
Format: cell-based
Conditions: dose-response curve with NKB
Experimental: BHK cells stably expressing the human NK3 receptor were seeded in 100 μl media in black walled clear-base 96-wells plates (Costar) aiming at a confluency of 95-100% at the day of assay. The assay was performed according to the FLIPR Calcium 4 Assay kit (Molecular Devices). At the day of the assay, the media was removed and the cells were washed once with the HBSS buffer (Hanks BSS buffer, pH 7.4 containing 20 mM Hepes) before 100 μl of a solution of the calcium assay reagent dissolved in the HBSS buffer containing 2.5 mM probinicid was added to the cells. The plates were incubated for 60 min at 34° C., 10% CO2 before use in the FLIPR for examination of fluorescence. […]
For efficacy and potency evaluation of compounds, these were diluted in HBSS buffer prior to test. For test of agonist activity, 25 μl of the diluted compound solution was added and the plate was analyzed for 5 minutes in the FLIPR. […] The plates were subsequently analyzed for 5 minutes before the assay was terminated. The maximal increase in fluorescence over background following each ligand addition was determined. The IC50 value was calculated using sigmoidal variable slope curve fitting, and the cIC50 value was determined using the equation (cIC50=IC50/(1+(EC85/EC50))), where EC85 and EC50 for NKB were determined as described above.

- EC85 concentration of NKB: ~4 nM
Substance: neurokinin B [NKB]
